Test results: patent US20050010126A1, “Assessment of concentration of inhalational compounds in the brain” (priority 2001, published 2005)

Assay: assessment of mixed venous and brain anesthetic concentration from inspired and expired concentrations
Conditions: desflurane; inspired 6.2%, expired 5.4%, M 0.2
From the text: At the stage of anesthesia (after the FRC is filled with the gas), the equation: Ci′−Ce′=M (Ci′−Cb′) can be used to calculate the compound concentration in the mixed venous blood (Cb′), in which Ci′ and Cb′ are the inspired compound concentration and the expired compound concentration, respectively: Cb′=[Ci′(M−1)+Ce′]/M.
As discussed above, Cb=(A+J)/2 and (A+J)/2=(Ce′+2Cb′)/3 or (Ce′+3Cb′)/4, the compound concentration in the brain (Cb) can be expressed as: Cb=(Ce′+2Cb′)/3 or (Ce+3Cb′)/4.
Thus, with measurements of the expired compound concentration (Ce′) and the mixed venous compound concentration (Cb′), the compound concentration in the brain (Cb) can be readily obtained. Below are two examples of how to assess brain anesthetic concentrations by this method.
A tube is connected to the circle system of an anesthesia machine consisting of gas flowmeters, a compound vaporizer, supply of oxygen, air and nitrous oxide gas, and a ventilator (e.g., Detex-Ohmeda, Finland, or Drager, Germany). The gas is then delivered to the patient by the anesthesia machine. […] Near the connection between the circle system and the tube, a side arm sampling site is linked to a gas monitoring equipment (e.g., an infra-red monitor or a mass spectrometer). Typically, a sampling speed is 200 mL/min. […]

FC(F)OC(F)C(F)(F)F (stereo not shown) [desflurane]
concentration in the mixed venous blood (Cb'): 2.2%
